The text below walks through data of patent US20260384450A1, “MACROCYCLIC AMINOPYRIDINE COMPOUNDS AS EGFR INHIBITORS” (published 2026).

By UniProt entry, the sequences of proteins in these tests, tags left out. Where a name states a change or a piece, a line headed by the entry shows the natural chain unless it says otherwise. Chains listed by the source or under a name are the forms on record and can include a tag or linker. Residues count along the entry.
UniProt P00533, 25-1210 limits assumed: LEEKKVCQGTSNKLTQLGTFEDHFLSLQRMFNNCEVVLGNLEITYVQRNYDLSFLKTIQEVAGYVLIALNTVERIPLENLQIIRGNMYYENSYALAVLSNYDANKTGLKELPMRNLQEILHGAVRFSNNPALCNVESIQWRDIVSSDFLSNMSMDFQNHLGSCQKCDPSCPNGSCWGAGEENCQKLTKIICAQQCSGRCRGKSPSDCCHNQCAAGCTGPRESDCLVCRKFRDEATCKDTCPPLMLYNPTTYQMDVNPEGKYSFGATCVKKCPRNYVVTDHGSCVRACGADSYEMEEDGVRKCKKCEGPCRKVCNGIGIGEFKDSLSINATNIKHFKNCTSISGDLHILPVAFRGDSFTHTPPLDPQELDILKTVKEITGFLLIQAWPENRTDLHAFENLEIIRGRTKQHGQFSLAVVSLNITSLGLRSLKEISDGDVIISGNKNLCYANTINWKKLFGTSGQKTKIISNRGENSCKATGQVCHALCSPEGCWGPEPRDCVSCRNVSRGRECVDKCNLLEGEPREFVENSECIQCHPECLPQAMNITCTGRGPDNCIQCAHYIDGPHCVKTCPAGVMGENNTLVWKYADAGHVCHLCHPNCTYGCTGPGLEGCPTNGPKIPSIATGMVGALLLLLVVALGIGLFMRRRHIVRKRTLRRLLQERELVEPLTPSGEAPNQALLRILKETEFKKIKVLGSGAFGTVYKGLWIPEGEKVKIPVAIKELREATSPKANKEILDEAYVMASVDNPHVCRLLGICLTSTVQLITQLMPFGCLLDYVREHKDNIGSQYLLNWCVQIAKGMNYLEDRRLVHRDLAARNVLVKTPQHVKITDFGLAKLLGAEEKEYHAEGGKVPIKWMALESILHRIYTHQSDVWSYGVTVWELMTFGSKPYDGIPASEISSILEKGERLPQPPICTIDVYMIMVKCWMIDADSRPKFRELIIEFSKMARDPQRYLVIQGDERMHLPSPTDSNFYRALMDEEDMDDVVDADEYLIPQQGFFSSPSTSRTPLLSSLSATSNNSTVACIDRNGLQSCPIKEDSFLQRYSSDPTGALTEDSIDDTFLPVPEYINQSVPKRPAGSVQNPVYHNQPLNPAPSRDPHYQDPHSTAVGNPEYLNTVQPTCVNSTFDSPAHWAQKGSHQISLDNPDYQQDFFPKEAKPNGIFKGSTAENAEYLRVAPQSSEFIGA
UniProt P00533, 25-1210 C797S/L858R limits assumed: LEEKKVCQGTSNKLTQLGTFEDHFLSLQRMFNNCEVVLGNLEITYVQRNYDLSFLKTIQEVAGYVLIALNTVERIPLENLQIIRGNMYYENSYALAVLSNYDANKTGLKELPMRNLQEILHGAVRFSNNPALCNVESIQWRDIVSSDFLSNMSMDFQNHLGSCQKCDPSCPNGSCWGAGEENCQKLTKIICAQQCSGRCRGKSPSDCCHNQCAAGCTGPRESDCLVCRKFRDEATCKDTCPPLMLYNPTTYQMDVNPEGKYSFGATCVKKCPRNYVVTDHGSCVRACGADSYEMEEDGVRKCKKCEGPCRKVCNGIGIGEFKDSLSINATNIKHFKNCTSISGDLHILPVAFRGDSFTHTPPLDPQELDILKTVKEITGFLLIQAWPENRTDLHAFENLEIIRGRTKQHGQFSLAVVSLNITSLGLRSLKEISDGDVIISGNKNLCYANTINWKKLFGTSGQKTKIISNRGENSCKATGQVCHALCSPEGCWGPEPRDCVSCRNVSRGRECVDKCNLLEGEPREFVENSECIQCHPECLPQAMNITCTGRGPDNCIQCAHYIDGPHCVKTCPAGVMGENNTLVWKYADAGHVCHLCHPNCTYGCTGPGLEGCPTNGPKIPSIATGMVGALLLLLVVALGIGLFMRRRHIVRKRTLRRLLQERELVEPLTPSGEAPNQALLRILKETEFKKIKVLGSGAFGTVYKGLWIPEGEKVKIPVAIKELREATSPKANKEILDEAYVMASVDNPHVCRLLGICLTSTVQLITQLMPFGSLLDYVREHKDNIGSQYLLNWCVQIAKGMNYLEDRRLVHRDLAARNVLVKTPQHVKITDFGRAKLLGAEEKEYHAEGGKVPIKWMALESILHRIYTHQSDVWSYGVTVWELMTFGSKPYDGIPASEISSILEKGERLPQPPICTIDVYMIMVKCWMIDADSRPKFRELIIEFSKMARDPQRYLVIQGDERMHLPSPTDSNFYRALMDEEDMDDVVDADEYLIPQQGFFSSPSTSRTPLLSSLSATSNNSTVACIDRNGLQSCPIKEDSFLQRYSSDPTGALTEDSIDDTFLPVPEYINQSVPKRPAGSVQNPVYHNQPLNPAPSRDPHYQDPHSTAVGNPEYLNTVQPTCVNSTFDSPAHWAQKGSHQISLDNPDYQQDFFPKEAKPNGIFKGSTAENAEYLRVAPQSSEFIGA
UniProt P00533, 25-1210 T790M/C797S/L858R limits assumed: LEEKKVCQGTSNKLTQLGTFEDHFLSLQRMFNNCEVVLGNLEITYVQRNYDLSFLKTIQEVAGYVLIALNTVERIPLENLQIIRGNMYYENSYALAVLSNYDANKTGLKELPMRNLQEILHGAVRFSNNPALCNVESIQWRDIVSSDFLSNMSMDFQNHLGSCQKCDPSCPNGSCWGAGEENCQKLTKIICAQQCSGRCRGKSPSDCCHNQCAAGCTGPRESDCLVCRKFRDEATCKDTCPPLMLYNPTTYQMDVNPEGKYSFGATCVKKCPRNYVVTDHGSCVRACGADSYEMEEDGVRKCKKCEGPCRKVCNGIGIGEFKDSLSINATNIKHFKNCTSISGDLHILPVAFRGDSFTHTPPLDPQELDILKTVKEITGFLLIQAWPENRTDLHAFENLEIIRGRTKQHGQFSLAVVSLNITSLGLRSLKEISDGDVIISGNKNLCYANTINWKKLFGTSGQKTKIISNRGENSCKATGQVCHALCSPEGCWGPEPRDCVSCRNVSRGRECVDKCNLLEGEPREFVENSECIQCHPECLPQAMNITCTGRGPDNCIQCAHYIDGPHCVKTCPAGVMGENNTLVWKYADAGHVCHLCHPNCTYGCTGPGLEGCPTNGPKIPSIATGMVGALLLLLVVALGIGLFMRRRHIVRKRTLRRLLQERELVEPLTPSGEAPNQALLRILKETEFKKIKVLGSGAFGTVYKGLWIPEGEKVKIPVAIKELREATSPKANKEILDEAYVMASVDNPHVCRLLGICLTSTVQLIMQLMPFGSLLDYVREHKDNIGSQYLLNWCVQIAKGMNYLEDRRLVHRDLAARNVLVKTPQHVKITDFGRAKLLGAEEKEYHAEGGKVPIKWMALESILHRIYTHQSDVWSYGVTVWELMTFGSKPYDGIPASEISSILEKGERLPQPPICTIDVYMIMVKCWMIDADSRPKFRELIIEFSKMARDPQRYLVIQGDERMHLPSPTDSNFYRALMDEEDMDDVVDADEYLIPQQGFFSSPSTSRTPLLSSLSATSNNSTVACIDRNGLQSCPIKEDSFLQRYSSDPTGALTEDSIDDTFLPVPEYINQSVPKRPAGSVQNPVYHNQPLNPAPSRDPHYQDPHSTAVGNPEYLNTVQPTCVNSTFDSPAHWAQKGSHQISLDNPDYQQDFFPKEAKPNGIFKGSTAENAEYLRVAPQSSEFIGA
UniProt P00533, with tags, fused parts or gaps DEL746-750/C797S limits assumed: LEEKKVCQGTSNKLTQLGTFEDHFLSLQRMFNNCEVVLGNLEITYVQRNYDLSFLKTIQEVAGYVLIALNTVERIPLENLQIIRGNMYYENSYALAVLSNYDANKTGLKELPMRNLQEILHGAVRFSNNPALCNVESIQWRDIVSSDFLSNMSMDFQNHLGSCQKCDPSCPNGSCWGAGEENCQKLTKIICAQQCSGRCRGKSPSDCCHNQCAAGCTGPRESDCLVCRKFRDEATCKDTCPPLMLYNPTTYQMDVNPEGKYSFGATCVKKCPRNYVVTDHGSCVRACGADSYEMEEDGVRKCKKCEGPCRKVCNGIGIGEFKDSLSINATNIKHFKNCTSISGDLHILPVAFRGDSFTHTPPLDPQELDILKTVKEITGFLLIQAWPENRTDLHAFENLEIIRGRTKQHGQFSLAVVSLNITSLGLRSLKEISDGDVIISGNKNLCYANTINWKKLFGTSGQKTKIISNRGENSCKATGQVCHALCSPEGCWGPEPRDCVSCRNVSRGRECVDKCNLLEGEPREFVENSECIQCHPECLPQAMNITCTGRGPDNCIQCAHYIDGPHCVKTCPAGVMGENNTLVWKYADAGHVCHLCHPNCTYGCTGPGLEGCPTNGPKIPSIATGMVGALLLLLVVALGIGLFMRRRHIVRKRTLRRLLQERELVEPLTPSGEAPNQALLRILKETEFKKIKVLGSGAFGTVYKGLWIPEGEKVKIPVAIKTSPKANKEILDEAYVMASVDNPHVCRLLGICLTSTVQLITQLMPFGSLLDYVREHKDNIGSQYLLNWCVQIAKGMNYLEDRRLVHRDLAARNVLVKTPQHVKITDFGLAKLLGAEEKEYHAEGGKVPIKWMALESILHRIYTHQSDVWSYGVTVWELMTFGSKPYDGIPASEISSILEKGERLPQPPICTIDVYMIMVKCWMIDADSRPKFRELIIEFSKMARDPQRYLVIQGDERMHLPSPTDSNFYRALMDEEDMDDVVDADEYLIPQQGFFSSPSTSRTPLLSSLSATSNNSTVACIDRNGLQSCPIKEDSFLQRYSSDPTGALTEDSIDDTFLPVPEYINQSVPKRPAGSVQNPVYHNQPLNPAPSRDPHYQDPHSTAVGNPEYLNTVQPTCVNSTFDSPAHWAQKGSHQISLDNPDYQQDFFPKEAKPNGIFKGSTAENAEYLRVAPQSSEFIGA
UniProt P00533, with tags, fused parts or gaps DEL746-750/T790M/C797S limits assumed: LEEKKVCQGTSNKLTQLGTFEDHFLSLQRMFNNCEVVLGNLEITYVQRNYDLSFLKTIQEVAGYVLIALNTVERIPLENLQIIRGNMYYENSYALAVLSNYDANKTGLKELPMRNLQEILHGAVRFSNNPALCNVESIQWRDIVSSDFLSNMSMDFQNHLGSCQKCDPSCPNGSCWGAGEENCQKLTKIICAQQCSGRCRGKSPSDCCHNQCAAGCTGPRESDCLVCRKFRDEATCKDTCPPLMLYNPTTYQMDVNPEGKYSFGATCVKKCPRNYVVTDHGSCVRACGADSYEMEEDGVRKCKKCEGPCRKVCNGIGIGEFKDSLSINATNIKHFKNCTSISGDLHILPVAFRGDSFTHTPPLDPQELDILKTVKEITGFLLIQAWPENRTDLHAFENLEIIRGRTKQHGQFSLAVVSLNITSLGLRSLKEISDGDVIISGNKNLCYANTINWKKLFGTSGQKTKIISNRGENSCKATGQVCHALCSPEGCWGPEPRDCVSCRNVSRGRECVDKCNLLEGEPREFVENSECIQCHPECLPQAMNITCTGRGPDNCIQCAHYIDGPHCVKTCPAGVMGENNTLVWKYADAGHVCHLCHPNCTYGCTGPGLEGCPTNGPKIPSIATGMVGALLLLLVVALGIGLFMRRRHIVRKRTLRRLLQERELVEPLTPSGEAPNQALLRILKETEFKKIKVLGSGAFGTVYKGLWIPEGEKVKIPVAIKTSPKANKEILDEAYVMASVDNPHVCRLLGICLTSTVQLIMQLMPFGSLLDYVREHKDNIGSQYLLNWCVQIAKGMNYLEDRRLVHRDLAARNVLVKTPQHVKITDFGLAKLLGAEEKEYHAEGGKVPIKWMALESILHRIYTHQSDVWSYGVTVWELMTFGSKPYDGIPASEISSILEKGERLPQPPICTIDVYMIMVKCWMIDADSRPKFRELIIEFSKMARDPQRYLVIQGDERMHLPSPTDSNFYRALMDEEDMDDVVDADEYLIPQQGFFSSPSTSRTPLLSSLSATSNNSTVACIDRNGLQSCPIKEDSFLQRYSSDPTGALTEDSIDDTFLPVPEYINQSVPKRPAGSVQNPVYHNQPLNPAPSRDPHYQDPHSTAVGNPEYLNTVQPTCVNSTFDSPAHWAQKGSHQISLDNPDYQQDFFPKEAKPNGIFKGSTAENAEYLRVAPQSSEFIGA

Where two headings read alike, the source gives them in different places. Bounds are passed on as bounds.

A word on the IC50: it is the concentration needed to halve the response being measured.

In one assay the target is EGFR LRCS (L858R/C797S) (Homo sapiens, UniProt P00533, C797S/L858R). In words: Biochemical EGFR kinase assay (Lance Ultra TR-FRET), double mutant L858R/C797S.
For a further assay, the target named is EGFR D19CS (del19/C797S) (Homo sapiens, UniProt P00533, C797S/DEL746-750). The assay is described as follows: Biochemical EGFR kinase assay (Lance Ultra TR-FRET), double mutant del19/C797S. In general terms: Time-resolved FRET reads energy transfer from a long-lived donor to a nearby acceptor.
The target in a further assay is EGFR WT (Homo sapiens, UniProt P00533). The assay is described as follows: Biochemical EGFR kinase assay (Lance Ultra TR-FRET), wildtype.
Assay [1] deals with EGFR LRTMCS (L858R/T790M/C797S) (Homo sapiens, UniProt P00533, C797S/L858R/T790M). In words: Biochemical EGFR kinase assay (Lance Ultra TR-FRET), triple mutant L858R/T790M/C797S.
Assay [2] addresses EGFR D19TMCS (del19/T790M/C797S) (Homo sapiens, UniProt P00533, C797S/DEL746-750/T790M). In words: Biochemical EGFR kinase assay (Lance Ultra TR-FRET), triple mutant del19/T790M/C797S.
The mark [3] stands for this setting: read-out: EGFR LRCS IC50, ATP 1 mM.
[4] abbreviates: read-out: EGFR LRCS IC50, ATP Km.
Setting [5] is: read-out: EGFR D19CS IC50, ATP 1 mM.
Setting [6] is: read-out: EGFR D19CS IC50, ATP Km.
Setting [7] is: read-out: EGFR WT IC50, ATP 1 mM.
The mark [8] stands for this setting: read-out: EGFR LRTMCS IC50, ATP 1 mM.
Setting [9] is: read-out: EGFR LRTMCS IC50, ATP Km.
Setting [10] is: read-out: EGFR D19TMCS IC50, ATP 1 mM.
[11] abbreviates: read-out: EGFR D19TMCS IC50, ATP Km.
Setting [12] is: read-out: IC50, EGFR-LRCS, 1 mM, ATP 1 mM, EGFR L858R/C797S.
Where [13] appears, read: read-out: IC50, EGFR-LRCS, Km, ATP at Km, EGFR L858R/C797S.
Where [14] appears, read: read-out: IC50, EGFR-D19CS, 1 mM, ATP 1 mM, EGFR del19/C797S.
Setting [15] is: read-out: IC50, EGFR-D19CS, Km, ATP at Km, EGFR del19/C797S.
Where [16] appears, read: read-out: IC50, EGFR WT, 1 mM, ATP 1 mM, EGFR wildtype.
Setting [17] is: read-out: IC50, EGFR WT, Km, ATP at Km, EGFR wildtype.
The mark [18] stands for this setting: read-out: IC50, EGFR LRTMCS, 1 mM, ATP 1 mM, EGFR L858R/T790M/C797S.
Where [19] appears, read: read-out: IC50, EGFR LRTMCS, Km, ATP at Km, EGFR L858R/T790M/C797S.
Where [20] appears, read: read-out: IC50, EGFR D19TMCS, Km, ATP at Km, EGFR del19/T790M/C797S.

With `C[C@@H]1CCNc2cc(ncc2-c2ccn(C(F)F)n2)Nc2ccnc(n2)-c2cnn(C)c2O1`, the IC50 on EGFR LRCS (L858R/C797S) (setting [3]) was 100 to 1000 nM; on EGFR LRCS (L858R/C797S) (setting [4]), < 10 nM; on EGFR D19CS (del19/C797S) (setting [5]), 10 to 100 nM; on EGFR D19CS (del19/C797S) (setting [6]), < 10 nM; at EGFR WT (setting [7]), > 1000 nM; on EGFR WT (read-out: EGFR WT IC50, ATP Km), 10 to 100 nM. Moreover, the IC50 in assay [1] (setting [8]), in assay [1] (setting [9]), in assay [2] (setting [10]) and in assay [2] (setting [11]) was < 10 nM in each case.
As for `Cc1nn(C)c2c1-c1nccc(n1)Nc1cc(c(-c3ncc(CN4C[C@H](CS(C)(=O)=O)[C@H]4C)cc3F)cn1)NCC[C@H](C)O2`, the IC50 on EGFR LRCS (L858R/C797S) (setting [12]) is 10 to 100 nM; at EGFR LRCS (L858R/C797S) (setting [13]), < 10 nM; on EGFR D19CS (del19/C797S) (setting [14]), 10 to 100 nM; on EGFR D19CS (del19/C797S) (setting [15]) it was 10 to 100 nM; at EGFR WT (setting [16]), > 1000 nM; on EGFR WT (setting [17]), 10 to 100 nM. Besides, the figures for the 50% inhibitory concentration (IC50) in assay [1] (setting [18]), in assay [1] (setting [19]) and in assay [2] (setting [20]) were 10 to 100 nM, < 10 nM and < 10 nM, respectively.
Turning to `CC(C)n1ncc2c1OCC[C@H](C)Nc1cc(ncc1-c1ccn(C(F)F)n1)Nc1ccnc-2n1`, the half-maximal inhibitory concentration (IC50) on EGFR LRCS (L858R/C797S) (setting [3]) is > 1000 nM; on EGFR LRCS (L858R/C797S) (setting [4]), 10 to 100 nM; at EGFR D19CS (del19/C797S) (setting [5]) it was > 1000 nM; on EGFR D19CS (del19/C797S) (setting [6]), 100 to 1000 nM; on EGFR WT (setting [7]), > 1000 nM; at EGFR WT (read-out: EGFR WT IC50, ATP Km), 10 to 100 nM. The half-inhibitory concentration (IC50) in assay [1] (setting [8]) is 10 to 100 nM; in assay [1] (setting [9]), < 10 nM; in assay [2] (setting [10]), 10 to 100 nM; in assay [2] (setting [11]) it was < 10 nM.
For `Cc1cn(C)nc1-c1cnc2cc1N[C@@H](C)CCOc1c(cnn1C)-c1nccc(n1)N2`, the IC50 was 100 to 1000 nM on EGFR LRCS (L858R/C797S) (setting [3]); < 10 nM at EGFR LRCS (L858R/C797S) (setting [4]); 100 to 1000 nM on EGFR D19CS (del19/C797S) (setting [5]); < 10 nM on EGFR D19CS (del19/C797S) (setting [6]); > 1000 nM on EGFR WT (setting [7]); 10 to 100 nM on EGFR WT (read-out: EGFR WT IC50, ATP Km). Further, the half-maximal inhibitory concentration (IC50) in assay [1] (setting [8]), in assay [1] (setting [9]), in assay [2] (setting [10]) and in assay [2] (setting [11]) was < 10 nM each time.
In the case of `Cc1nn(C)c2c1-c1nccc(n1)Nc1cc(c(-c3ncc(CN4CCC(C5(O)CC5)CC4)cc3F)cn1)NCC[C@H](C)O2`, the IC50 at EGFR LRCS (L858R/C797S) (setting [12]) is 10 to 100 nM; at EGFR LRCS (L858R/C797S) (setting [13]), < 10 nM; at EGFR D19CS (del19/C797S) (setting [14]), 10 to 100 nM; on EGFR D19CS (del19/C797S) (setting [15]) it was < 10 nM; on EGFR WT (setting [16]), > 1000 nM; on EGFR WT (setting [17]), < 10 nM. In addition, the IC50 in assay [1] (setting [18]), in assay [1] (setting [19]) and in assay [2] (setting [20]) was < 10 nM each time.
Consider `COc1cccnc1-c1cnc2cc1NC(C)CCCOc1c(cnn1C)-c1nccc(n1)N2` (centres unmarked), for which the IC50 on EGFR LRCS (L858R/C797S) (setting [3]) was > 1000 nM; on EGFR LRCS (L858R/C797S) (setting [4]) it was > 1000 nM; at EGFR D19CS (del19/C797S) (setting [5]), > 1000 nM; at EGFR D19CS (del19/C797S) (setting [6]) it was > 1000 nM; at EGFR WT (setting [7]), > 1000 nM; at EGFR WT (read-out: EGFR WT IC50, ATP Km), > 1000 nM. Also, the half-maximal inhibitory concentration (IC50) is 100 to 1000 nM in assay [1] (setting [8]), < 10 nM in assay [1] (setting [9]), 100 to 1000 nM in assay [2] (setting [10]) and 10 to 100 nM in assay [2] (setting [11]).
Regarding `Cc1nn(C)c2c1-c1nccc(n1)Nc1cc(c(-c3cnc(S(C)(=O)=O)cn3)cn1)NCC[C@H](C)O2`, the concentration for half-maximal inhibition (IC50) is 10 to 100 nM on EGFR LRCS (L858R/C797S) (setting [12]); < 10 nM on EGFR LRCS (L858R/C797S) (setting [13]); < 10 nM at EGFR D19CS (del19/C797S) (setting [14]); < 10 nM on EGFR D19CS (del19/C797S) (setting [15]); > 1000 nM on EGFR WT (setting [16]); 10 to 100 nM at EGFR WT (setting [17]). Also, the concentration for half-maximal inhibition (IC50) in assay [1] (setting [18]) was 10 to 100 nM; in assay [1] (setting [19]), < 10 nM; in assay [2] (setting [20]), < 10 nM.
Regarding `Cn1ncc2c1OCC(C)(C)CNc1cc(ncc1-c1ccn(CC(F)(F)F)n1)Nc1ccnc-2n1`, the half-maximal inhibitory concentration (IC50) at EGFR LRCS (L858R/C797S) (setting [3]) is 100 to 1000 nM; on EGFR LRCS (L858R/C797S) (setting [4]), 10 to 100 nM; at EGFR D19CS (del19/C797S) (setting [5]), 100 to 1000 nM; on EGFR D19CS (del19/C797S) (setting [6]), 10 to 100 nM; at EGFR WT (setting [7]), > 1000 nM; at EGFR WT (read-out: EGFR WT IC50, ATP Km) it was 100 to 1000 nM. The IC50 in assay [1] (setting [8]), in assay [1] (setting [9]), in assay [2] (setting [10]) and in assay [2] (setting [11]) was < 10 nM each time.
Take `Cc1nn(C)c2c1-c1nccc(n1)Nc1cc(c(-c3ncc(CN4CC5(COC5)C4)cc3F)cn1)NCC[C@H](C)O2`: the IC50 on EGFR LRCS (L858R/C797S) (setting [12]) is 10 to 100 nM; at EGFR LRCS (L858R/C797S) (setting [13]) it was < 10 nM; at EGFR D19CS (del19/C797S) (setting [14]), 10 to 100 nM; at EGFR D19CS (del19/C797S) (setting [15]), < 10 nM; on EGFR WT (setting [16]), > 1000 nM; at EGFR WT (setting [17]) it was 10 to 100 nM. Further, the half-inhibitory concentration (IC50) in assay [1] (setting [18]), in assay [1] (setting [19]) and in assay [2] (setting [20]) was < 10 nM each time.
